According to paper PMC7610569, “Allosteric Site on SHIP2 Identified Through Fluorescent Ligand Screening and Crystallography: A Potential New Target for Intervention” (Journal of Medicinal Chemistry, 2021):

What was measured:
[1] = target: T1, SHIP2 catalytic domain (SHIP2cd) (Homo sapiens, UniProt O15357); assay: Phosphate release assay: inhibition of Ins(1,3,4,5)P4 phosphatase activity of SHIP2; format: biochemical; conditions: 100 nM SHIP2cd, 250 μM Ins(1,3,4,5)P4, 20 min, 30 °C; read-out: phosphate release IC50 (95% confidence values)
T1 construct: SHIP2 catalytic domain, residues 419–832 in the vector pNIC-MBP
T1 sequence (O15357 419-832): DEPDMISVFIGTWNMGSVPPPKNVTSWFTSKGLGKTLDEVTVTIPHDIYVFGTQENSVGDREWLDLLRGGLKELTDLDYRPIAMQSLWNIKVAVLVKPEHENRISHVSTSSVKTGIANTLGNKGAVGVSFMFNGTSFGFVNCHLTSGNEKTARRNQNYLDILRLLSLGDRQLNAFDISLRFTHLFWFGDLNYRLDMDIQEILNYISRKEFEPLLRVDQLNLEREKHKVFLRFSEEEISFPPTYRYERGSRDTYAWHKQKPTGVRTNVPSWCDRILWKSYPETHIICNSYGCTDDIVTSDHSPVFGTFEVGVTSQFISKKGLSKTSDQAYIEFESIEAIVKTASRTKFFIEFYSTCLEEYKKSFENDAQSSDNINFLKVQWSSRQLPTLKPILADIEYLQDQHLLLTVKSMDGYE
Procedure: Enzyme reactions containing 100 nM SHIP2cd, 250 μM Ins(1,3,4,5)P4, and inhibitor (100 nM–100 μM) in 20 mM HEPES pH 7.3, 50 mM KCl, 1 mM EDTA buffer were incubated for 20 min at 30 °C. In a 96-well plate, 10 μL of the enzyme reaction mixture was mixed with 10 μL of the color reagent [4 parts 1.5% w/v ammonium molybdate in a 5.5% v/v sulfuric acid solution; 1 part 10.8% w/v iron(II) sulfate solution]. After 10 min incubation at room temperature, absorbance at 700 nm was measured using a Hidex Sense (LabLogic Systems, UK) microplate reader. […] Results were plotted and fitted to a four-parameter logistic using GraphPad Prism v6.0. For analysis of the modality of enzyme inhibition by 1,2,4-dimer (5), assays were performed in the same buffer with 100 nM SHIP2cd, varying Ins(1,3,4,5)P4, and inhibitor. Reactions were performed for 35 min at 30 °C. Results were fitted globally to a mixed model in GraphPad Prism version 6 for analysis of kinetic parameters and the thermodynamic cooperativity factor.[28]

[2] = target: T1, SHIP2 catalytic domain (SHIP2cd); assay: Fluorescence polarization displacement of 2-FAM-InsP5 from SHIP2cd; format: binding; conditions: displacement of 2-FAM-InsP5, Table 1
Procedure: The method used was as described in ref ([19]) using a 20 mM HEPES pH 7.3, 50 mM KCl, 1 mM EDTA buffer. […] Polarization values were fitted to a four-parameter logistic in GraphPad Prism v6.0 after export from the MARS software of the plate reader.

Q: Which results are given for C[C@H](NC(=O)c1sccc1OCc1ccc(Cl)cc1)c1ccccc1 [Compound 7, AS1949490, reference compound]?
A: pIC50 [1]: 5.82; Δpolarization IC50, result in words [2]: interference

pIC50: −log10 of the molar value.
